Data taken from PMC11049645, “Mechanistic Study of Novel Dipeptidyl Peptidase IV Inhibitory Peptides from Goat’s Milk Based on Peptidomics and In Silico Analysis” (Foods, 2024).

Chains of the proteins cited; added tags and fusions are not shown.
UniProt P27487, whole entry: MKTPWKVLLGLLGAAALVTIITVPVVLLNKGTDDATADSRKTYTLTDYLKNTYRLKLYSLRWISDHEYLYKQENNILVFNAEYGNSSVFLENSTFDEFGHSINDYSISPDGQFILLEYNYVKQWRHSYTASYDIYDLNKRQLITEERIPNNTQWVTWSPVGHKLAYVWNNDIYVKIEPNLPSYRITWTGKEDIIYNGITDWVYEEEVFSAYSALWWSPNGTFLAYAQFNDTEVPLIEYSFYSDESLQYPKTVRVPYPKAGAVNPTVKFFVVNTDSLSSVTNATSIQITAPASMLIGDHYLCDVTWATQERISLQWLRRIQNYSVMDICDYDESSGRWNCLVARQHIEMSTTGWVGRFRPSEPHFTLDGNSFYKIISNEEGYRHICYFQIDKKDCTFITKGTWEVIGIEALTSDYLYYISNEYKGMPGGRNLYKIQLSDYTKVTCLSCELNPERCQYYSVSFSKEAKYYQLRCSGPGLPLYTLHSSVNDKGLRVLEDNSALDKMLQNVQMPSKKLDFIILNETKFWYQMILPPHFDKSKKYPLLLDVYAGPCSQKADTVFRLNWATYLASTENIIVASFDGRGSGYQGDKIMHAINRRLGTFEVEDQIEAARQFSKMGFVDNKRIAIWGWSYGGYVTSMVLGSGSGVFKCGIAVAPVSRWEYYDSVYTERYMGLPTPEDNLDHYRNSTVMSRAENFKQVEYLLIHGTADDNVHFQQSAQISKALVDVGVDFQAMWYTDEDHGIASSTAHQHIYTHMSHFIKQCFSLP

How the values were obtained:
DPP-IV = target: T1, DPP-IV (Homo sapiens, UniProt P27487); test: DPP-IV inhibitory assay (in vitro chemical system, Gly-Pro-pNA); assay type: biochemical; settings: Gly-Pro-pNA substrate, pH 8, 37 °C, 60 min, mean ± SD
T1 construct: purchased Sigma-Aldrich
Experimental: The DPP-IV inhibitory activity of peptides was performed as previously reported with slight modifications. Briefly, peptides were diluted using 100 mM Tris-HCL buffer (pH = 8). Then, 25 μL diluted peptides were mixed with 25 μL of 1.6 mM Gly-Pro-pNA in a 96-well microplate and incubated at 37 °C for 10 min. […] The DPP-IV-inhibition (DI) was calculated with the following equation: DI%=1−AS−ASC/ANR−ANC×100% where AS (sample) is the optical density in the presence of peptide, DPP-IV, and Gly-Pro-pNA; ASC (sample control) is the optical density when DPP-IV is replaced with Tris-HCl buffer (100 mM, pH 8.0); ANR (negative reaction) is the optical density in the presence of only DPP-IV solution and Gly-Pro-pNA; and ANC (negative control) is the optical density in the absence of DPP-IV and peptide.

[1] = target: T2, DPP-IV activity of Caco-2 cells (Homo sapiens, UniProt P27487); test: In situ cell-based DPP-IV inhibition (Gly-Pro-AMC); settings: 1 h at 37 °C, Gly-Pro-AMC 50 µM, mean ± SD (n = 3), read-out: In situ DPP-IV inhibitory activity IC50
T2 construct: endogenous in cells; host or cells: Caco-2
Experimental: The Caco-2 cells (Cell Bank of Shanghai Academy of Biological Science, Shanghai, China) were incubated at 37 °C in a 5% CO2 environment in DMEM supplemented with 10% FBS and 1% penicillin–streptomycin liquid. Unless otherwise stated below, the cells were cultivated at a density of 5 × 10^4 cells/mL in the culture dishes (Corning Inc., Corning, NY, USA). The cell culture medium was changed every two days, and the cells from passage numbers of 15–25 were used in this study.
Briefly, 2 × 10^4 Caco-2 cells/well cells were seeded in 96-well microplates and cultivated for 24 h. […] Subsequently, 100 µL of the fluorescent substrate Gly-Pro-AMC (50 µM) was added to each well and incubated for 5 min. IPI was used as a positive control. Then, the florescence was monitored with excitation and emission wavelengths of 380 nm and 500 nm (Molecular Devices SpectraMax M5, San Jose, CA, USA).

With CC[C@H](C)[C@H](N)C(=O)N1CCC[C@H]1C(=O)N[C@H](C(=O)O)[C@@H](C)CC [Peptide P19, diprotin A] the IC50 (DPP-IV) was 9.28 ± 0.52 µM and the IC50 [1] was 10.8 ± 2.72 µM.
